One compound from patent US9273055B2 (dated 2016) can be followed below.

The chains behind the UniProt entries cited, without tags or fusion partners. Residues count along the entry.
UniProt Q9UM73, 19-1620: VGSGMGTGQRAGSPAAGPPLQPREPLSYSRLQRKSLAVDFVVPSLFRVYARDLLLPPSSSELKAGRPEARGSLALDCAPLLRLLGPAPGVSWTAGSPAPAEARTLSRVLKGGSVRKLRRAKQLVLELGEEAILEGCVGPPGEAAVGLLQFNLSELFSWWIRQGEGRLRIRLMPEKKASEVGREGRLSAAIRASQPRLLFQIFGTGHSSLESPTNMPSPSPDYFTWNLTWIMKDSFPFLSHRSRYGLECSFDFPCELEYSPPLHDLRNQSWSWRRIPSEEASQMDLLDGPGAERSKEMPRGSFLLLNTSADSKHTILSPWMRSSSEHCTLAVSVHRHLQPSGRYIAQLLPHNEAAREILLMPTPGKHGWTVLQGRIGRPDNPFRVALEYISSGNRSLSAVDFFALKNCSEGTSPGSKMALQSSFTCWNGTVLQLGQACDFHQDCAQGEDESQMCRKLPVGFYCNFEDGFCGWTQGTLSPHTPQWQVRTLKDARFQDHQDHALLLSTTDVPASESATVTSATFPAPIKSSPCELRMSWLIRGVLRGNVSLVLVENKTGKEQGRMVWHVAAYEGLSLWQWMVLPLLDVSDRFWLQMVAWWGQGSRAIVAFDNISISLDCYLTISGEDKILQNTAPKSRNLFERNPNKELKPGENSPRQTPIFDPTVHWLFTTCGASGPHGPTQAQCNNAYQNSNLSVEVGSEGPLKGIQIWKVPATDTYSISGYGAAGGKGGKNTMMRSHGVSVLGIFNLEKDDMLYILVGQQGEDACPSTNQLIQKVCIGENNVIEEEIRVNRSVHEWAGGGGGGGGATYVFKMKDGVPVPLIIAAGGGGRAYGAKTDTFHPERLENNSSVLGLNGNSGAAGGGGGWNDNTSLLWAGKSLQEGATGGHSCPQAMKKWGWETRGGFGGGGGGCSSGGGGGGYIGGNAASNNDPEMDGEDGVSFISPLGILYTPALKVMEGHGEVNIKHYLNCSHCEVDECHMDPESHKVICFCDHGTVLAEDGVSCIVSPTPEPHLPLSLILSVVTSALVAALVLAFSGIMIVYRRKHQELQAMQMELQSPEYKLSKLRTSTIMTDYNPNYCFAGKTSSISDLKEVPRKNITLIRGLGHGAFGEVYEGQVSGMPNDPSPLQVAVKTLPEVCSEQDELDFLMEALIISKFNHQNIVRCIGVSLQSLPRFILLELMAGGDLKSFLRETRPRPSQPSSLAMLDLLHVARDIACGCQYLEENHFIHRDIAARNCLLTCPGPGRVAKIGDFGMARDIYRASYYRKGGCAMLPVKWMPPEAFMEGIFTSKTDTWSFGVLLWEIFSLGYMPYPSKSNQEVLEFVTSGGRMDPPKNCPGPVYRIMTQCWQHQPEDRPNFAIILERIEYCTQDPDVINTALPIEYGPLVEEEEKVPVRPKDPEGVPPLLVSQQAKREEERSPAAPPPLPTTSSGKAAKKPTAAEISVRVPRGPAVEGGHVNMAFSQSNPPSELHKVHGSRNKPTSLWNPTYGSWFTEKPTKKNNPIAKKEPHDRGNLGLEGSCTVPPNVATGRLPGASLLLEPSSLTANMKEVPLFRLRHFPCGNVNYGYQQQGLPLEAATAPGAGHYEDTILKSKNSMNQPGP
UniProt P04629, 33-796: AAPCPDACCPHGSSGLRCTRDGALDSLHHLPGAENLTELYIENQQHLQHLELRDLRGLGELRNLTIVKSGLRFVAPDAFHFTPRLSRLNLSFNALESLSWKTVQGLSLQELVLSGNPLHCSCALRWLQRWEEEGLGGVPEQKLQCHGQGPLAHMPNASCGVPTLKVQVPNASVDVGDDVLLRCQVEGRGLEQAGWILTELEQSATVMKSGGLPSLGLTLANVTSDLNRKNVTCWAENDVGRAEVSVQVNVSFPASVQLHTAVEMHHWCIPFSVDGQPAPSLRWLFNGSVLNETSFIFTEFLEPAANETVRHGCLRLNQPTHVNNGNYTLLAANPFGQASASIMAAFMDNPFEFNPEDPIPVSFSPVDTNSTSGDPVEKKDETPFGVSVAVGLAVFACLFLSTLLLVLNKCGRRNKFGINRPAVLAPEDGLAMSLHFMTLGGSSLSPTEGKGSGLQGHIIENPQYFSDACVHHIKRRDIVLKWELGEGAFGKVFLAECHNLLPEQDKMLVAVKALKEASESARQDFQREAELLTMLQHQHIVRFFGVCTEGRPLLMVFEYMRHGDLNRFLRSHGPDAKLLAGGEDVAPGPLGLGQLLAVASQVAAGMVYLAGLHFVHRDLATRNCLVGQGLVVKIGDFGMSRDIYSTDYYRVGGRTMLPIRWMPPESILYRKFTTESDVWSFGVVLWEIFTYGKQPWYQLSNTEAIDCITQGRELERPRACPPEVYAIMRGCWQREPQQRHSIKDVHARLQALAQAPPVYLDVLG

As usually defined, the IC50 is the point on the concentration scale where inhibition reaches its midpoint.

In assay [1] the target is ALK (Homo sapiens, UniProt Q9UM73). Nature of the assay: In vitro kinase activity assay (LANCE TR-FRET), ALK. To be noted: read-out: ALK IC50. Background: TR-FRET usually uses a lanthanide donor and a delayed reading to cut background.
Assay [2] has as its target TrkA (Homo sapiens, UniProt P04629). Nature of the assay: In vitro kinase activity assay (LANCE TR-FRET), TrkA. Particulars: read-out: TrKA IC50. It is filed as biochemical.

Turning to `C[C@@H](Cc1c(F)c(F)cc(F)c1F)Nc1cc[nH]c(=O)c1-c1nc2cc3c(cc2[nH]1)C(=O)N(c1ccc(F)nc1)C3=O` [Compound 15, (S)-6-(6-Fluoropyridin-3-yl)-2-(2-oxo-4-((1-(2,3,5,6-tetrafluorophenyl)propan-2-yl)amino)-1,2-dihydropyridin-3-yl)imidazo[4,5-f]isoindole-5,7(1H,6H)-dione], the IC50 in assay [1] and in assay [2] was more than 10 µM throughout.
